Source: PMC9320654, “Study on In Vitro Metabolism and In Vivo Pharmacokinetics of Beauvericin” (Toxins, 2022)

Columns and labels:
[1] = Plasma stability, monkey plasma; type: in vitro ADME
Description: (§1) The pooled frozen plasma was thawed in a water bath at 37 °C prior to the experiment. Plasma was centrifuged at 4000 rpm for 5 min, and the clots, if any, were removed. Using an Apricot automation workstation, blank plasma (98 μL/well) was added to six 96-well reaction plates (Blank, T0, T10, T30, T60, and T120). An Apricot automation workstation was used to add working solution (2 μL/well, 100 μM) to all reaction plates except the Blank plate (T0, T10, T30, T60, and T120). All reaction plates containing mixtures of compound and plasma were incubated at 37 °C in a water bath. At the end of the incubation, 400 μL of stop solution (200 ng/mL tolbutamide and 200 ng/mL labetalol in acetonitrile) was added to precipitate the protein, and the mixture was mixed thoroughly. Samples were then vortexed and centrifuged (20 min, 4000 rpm, 4 °C). After centrifugation, an Apricot automation workstation was used to transfer 50 μL of supernatant into 100 μL of HPLC water. […] The % remaining test compound after incubation in plasma was calculated using the following equation:(11) % Remaining= PAR at appointed incubation time/PAR at T0 time×100 where PAR is the peak area ratio of analyte versus internal standard (IS). […]

[2] = Plasma stability, dog plasma; type: in vitro ADME
Description: as §1

[3] = Metabolic stability in cryopreserved hepatocytes, rat; type: in vitro ADME, Sprague Dawley rat
Description: (§2) BEA (10 mM) was incubated in duplicate in a 96-well plate containing a suspension of mouse, rat, monkey, dog, or human hepatocytes (0.5 × 10^6 cells/mL) at 37 °C for 1.5 h in a controlled atmosphere (5% CO2, 95% humidified incubator). BEA and the control were prepared with 50 μL of DMSO and 450 μL of acetonitrile (ACN) to achieve a final concentration of 1 μM, and then spiked into each well of 96-well plates in duplicates. Samples were withdrawn from the reaction mixture at 0, 15, 30, 60, and 90 min and were quenched with stop solution (acetonitrile containing 200 ng/mL tolbutamide and 200 ng/mL labetalol as internal standards). A cocktail of 7-ethoxycoumarin (Lot#: I1825085) was used as the positive control for the assay. The analytical plates were sealed and stored at 4 °C until LC-MS/MS analysis. The data obtained from the BEA metabolic stability assays were used to calculate the intrinsic clearance and remaining percentages, as described in Table 4 and Figure 4.
(§3) The remaining percentages of test articles after incubation were calculated by the following equations:(7) %Remainingat Appointed Time=Peak Area Ratios of Test Article versus Internal Standard at Appointed Time/Peak Area Ratios of Test Article versus Internal Standard 0 min
(§4) We used the equation of first order kinetics to calculate T1/2 and CLint: […]

[4] = Metabolic stability in cryopreserved hepatocytes, human; type: in vitro ADME; conditions: 0.5 × 10^6 cells/mL, 1 μM, n = 2
Description: as §2, §3, §4

[5] = Metabolite identification by LC-UV-MS^n in rat liver microsomes; type: in vitro ADME; conditions: RLM
Description: The objectives of this study were to search for and to identify the metabolites of BEA in liver microsomes from mice, rats, dogs, monkeys and humans by LC-UV-MS^n (n = 1~2) (based on peak intensity ≥ 1% of total drug related components), and to propose its metabolic pathways.
The test compound BEA at 10 µM was incubated with liver microsomes at 37 °C for 60 min. The positive control, 7-ethoxycoumarin (7-EC) at 10 µM, was run concurrently to assess Phase I metabolic activities in liver microsomes. […] After incubation, the samples were analyzed by LC-UV-MS (Table S7). The structures of the metabolites were proposed based on the interpretation of their MS and MS2 data. The results are presented in Table 6 and Figure 6. %Total=Peak Area of a Releted Component/Peak Area of Total Releted Component×100%

[6] = Metabolic stability in liver microsomes, DLM; type: in vitro ADME, beagle dog
Description: (§5) […]. […] […]

[7] = PK experiments in rats after intravenous or oral administration; type: in vivo, Sprague Dawley rat; conditions: rat, n = 3
Description: The PK of BEA were evaluated in cannulated male Sprague Dawley rats following an intravenous infusion (1 h) or oral dosing, with N = 3 for each route of administration. Sprague Dawley rats weighing 210 ± 10 g each were obtained from Vital River Laboratory Animal Technology Co., Ltd. (Beijing, China), and were used for pharmacokinetic assessment. All protocols involving animals were approved by the XBL-China Institutional Animal Care and Use Committee (IACUC No.2020-007). Animals were treated in accordance with the Animal Welfare Act and the “Guide for the Care and Use of Laboratory Animals” (NIH Publication 86-23, revised 1985). The animals were supplied with water and a commercial rodent diet ad libitum prior to study initiation. The rats were administered BEA as an intravenous infusion at a dose of 0.5 mg/kg and orally at a dose of 2 mg/kg, respectively. The animals were dosed via the appropriate route at time 0, and samples were collected at several time points up to 24 h following dose administration. Following intravenous infusion administration, blood samples were collected from the jugular vein cannula at predose as well as at 0.083, 0.25, 0.5, 1, 2, 4, 8, and 24 h postdose of BEA. […] Noncompartmental PK parameters such as area under the curve (AUC) and T1/2 were calculated using WinNonlin Professional (version 6.3, Pharsight, Sunnyvale, CA, USA). The absolute oral bioavailability of BEA in rats was calculated by the AUC(0−∞) ratio obtained following oral and i.v. administration. […]
Blood concentration–time curves obtained for each compound were analyzed by means of noncompartmental PK analysis with WinNonlin Professional (version 6.3, Pharsight, Sunnyvale, CA, USA). Following intravenous infusion or bolus administration, the elimination T1/2, total AUC, AUC0−t, systemic blood clearance, and steady-state volume of distribution were calculated using the appropriate noncompartmental model (constant infusion, bolus intravenous injection, and extravascular, respectively). Following oral dosing, Cmax, Tmax, AUC0−t, and AUC0−∞ were calculated. […]

[8] = Metabolic stability in liver microsomes, RLM; type: in vitro ADME, Sprague Dawley rat
[9] = Plasma stability, rat plasma; type: in vitro ADME
Description: The pooled frozen plasma was thawed in a water bath at 37 °C prior to the experiment. Plasma was centrifuged at 4000 rpm for 5 min, and the clots, if any, were removed. Using an Apricot automation workstation, blank plasma (98 μL/well) was added to six 96-well reaction plates (Blank, T0, T10, T30, T60, and T120). An Apricot automation workstation was used to add working solution (2 μL/well, 100 μM) to all reaction plates except the Blank plate (T0, T10, T30, T60, and T120). All reaction plates containing mixtures of compound and plasma were incubated at 37 °C in a water bath. At the end of the incubation, 400 μL of stop solution (200 ng/mL tolbutamide and 200 ng/mL labetalol in acetonitrile) was added to precipitate the protein, and the mixture was mixed thoroughly. Samples were then vortexed and centrifuged (20 min, 4000 rpm, 4 °C). After centrifugation, an Apricot automation workstation was used to transfer 50 μL of supernatant into 100 μL of HPLC water. The positive compounds, such as propantheline bromide (Lot#: R000190915), enalapril maleate salt (Lot#: MKBR8243V), bisacodyl (Lot#: 5-XJZ-44-1), procaine hydrochloride (Lot#: UCFUA-FH), were incubated in parallel with the BEA samples. […] The % remaining test compound after incubation in plasma was calculated using the following equation:(11) % Remaining= PAR at appointed incubation time/PAR at T0 time×100 where PAR is the peak area ratio of analyte versus internal standard (IS).
The appointed incubation time points are T0 (0 min), Tn (n = 0, 10, 30, 60, 120 min).

[10] = Plasma stability, human plasma; type: in vitro ADME; conditions: human plasma (stated for the plasma of the five species)
Description: as §1

[11] = Metabolic stability in cryopreserved hepatocytes, mouse; type: in vitro ADME, CD-1 mouse
Description: as §2, §3, §4

[12] = Metabolic stability in cryopreserved hepatocytes, dog; type: in vitro ADME, beagle dog
Description: as §2, §3, §4

[13] = Plasma stability, mouse plasma; type: in vitro ADME; conditions: mouse plasma (stated for the plasma of the five species)
Description: as §1

[14] = Metabolic stability in cryopreserved hepatocytes, monkey; type: in vitro ADME, cynomolgus monkey; conditions: 0.5 × 10^6 cells/mL, 1 μM, n = 2
Description: as §2, §3, §4

[15] = Metabolic stability in liver microsomes, MLM
[16] = Metabolic stability in liver microsomes, HLM; type: in vitro ADME, human
Description: as §5

[17] = Metabolic stability in liver microsomes, CLM

Beauvericin
T1/2 in plasma ([1]; monkey plasma (stated for the plasma of the five species)): approximately 5 h
Remaining % (T = 120 min) ([1]; monkey plasma, 120 min): 103.7%
T1/2 ([2]; 37 °C, n = 2): >289 min
Remaining % (T = 120 min) ([2]; 120 min): 113.1%
Remaining % (T = 90 min) ([3]; rat hepatocytes, 90 min): 39.8%
CLint(liver) ([3]; scaled from rat hepatocyte CLint): 85.7 mL/min/kg
T1/2 [4]: > 60 min and 83.3 min
Number of metabolites detected [5]: 13
CLint(mic) [6]: 228.7 µL/min/mg
T1/2 ([6]; 1 μM, NADPH, n = 2): 6.1 min
AUC0−t ([7]; i.v., 0.5 mg/kg): 339.0 ± 66.8 ng·h/mL
CL ([7]; i.v., 0.5 mg/kg): 23.9 ± 4.3 mL/min/kg
AUC0−t ([7]; p.o., 2 mg/kg): 393.0 ± 54.6 ng·h/mL
CLint(mic) [8]: 54.2 µL/min/mg
T1/2 ([8]; 1 μM, NADPH, n = 2): 25.6 min
T1/2 in plasma ([9]; rat plasma (stated for the plasma of the five species)): approximately 5 h
T1/2 ([9]; rat plasma, 37 °C, n = 2): >289 min
Remaining % (T = 120 min) ([9]; rat plasma, 120 min): 105.8%
T1/2 in plasma [10]: approximately 5 h
T1/2 ([11]; mouse hepatocytes, 0.5 × 10^6 cells/mL, 1 μM, n = 2): > 60 min and 71.7 min
CLint(liver) ([11]; scaled from mouse hepatocyte CLint): 229.7 mL/min/kg
CLint (hep) (μL/min/10^6) [12]: 89.0 μL/min/10^6
Fu (%), unbound fraction (human plasma proteins): 0.12%
Bound Fraction (%) (human plasma proteins; dialysis 5 h, 37 °C, BEA 2 μM, warfarin 1 μM, n = 3): > 90% and 99.88 ± 3.53%
T1/2 in plasma [13]: approximately 5 h
T1/2 [14]: 28.0 min
CLint(mic) [15]: 112.7 µL/min/mg
T1/2 ([15]; 1 μM, NADPH, n = 2): 12.3 min
CLint(mic) [16]: 30.9 µL/min/mg
T1/2 ([16]; 1 μM, NADPH, n = 2): > 30 min and 44.9 min
CLint(mic) [17]: 191.1 µL/min/mg
T1/2 ([17]; 1 μM, NADPH, n = 2): 7.3 min

“And” between values parts separate entries of the source, which are not always exact repeats. Equal values may be shown once.
